# Measurements: patent US9067937B2 (priority 2012, dated 2015)
# Protein sequences, listed by entry. Tags and fused reporters are not part of them. Lines headed by an entry give the natural chain unless they say otherwise; changes in a name come on top.
# UniProt Q14680: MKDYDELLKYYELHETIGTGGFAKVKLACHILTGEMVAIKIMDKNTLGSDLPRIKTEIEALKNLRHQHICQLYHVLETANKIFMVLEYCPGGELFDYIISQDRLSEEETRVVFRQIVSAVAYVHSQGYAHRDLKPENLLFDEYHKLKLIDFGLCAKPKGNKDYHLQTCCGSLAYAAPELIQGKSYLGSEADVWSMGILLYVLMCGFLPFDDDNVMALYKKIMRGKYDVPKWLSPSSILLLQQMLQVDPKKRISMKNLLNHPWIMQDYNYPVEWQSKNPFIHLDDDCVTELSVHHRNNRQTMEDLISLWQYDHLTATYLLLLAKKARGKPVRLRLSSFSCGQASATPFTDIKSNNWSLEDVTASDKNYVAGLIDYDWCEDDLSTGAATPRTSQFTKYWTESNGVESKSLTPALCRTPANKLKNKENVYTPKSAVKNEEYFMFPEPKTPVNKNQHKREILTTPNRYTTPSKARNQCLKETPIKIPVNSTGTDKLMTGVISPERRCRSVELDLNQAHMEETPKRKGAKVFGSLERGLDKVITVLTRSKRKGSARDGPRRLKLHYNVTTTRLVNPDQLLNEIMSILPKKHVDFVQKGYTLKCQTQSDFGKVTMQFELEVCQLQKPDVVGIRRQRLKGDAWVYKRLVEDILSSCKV
# Structures can show the parent of a compound that is named as a salt.
# What was measured:
# [1] = molecular target: MELK (Homo sapiens, UniProt Q14680); test: Kinase assay (IMAP fluorescence polarization, FITC-labeled histone H3 peptide); assay type: biochemical; conditions: 50 micro-M ATP
# Description: MELK activity was determined in the presence or absence of compounds using fluorescein isothiocyanate-labeled (FITC-labeled) histone H3 peptide as a substrate. […] The serially diluted compounds, 0.8 ng/micro-L […] (Carna Biosciences) and 100 nM FITC-labeled histone H3 peptide were reacted in a reaction buffer (20 mM HEPES, 0.01% Tween-20, 0.3 mM MgCl2, 2 mM dithiothreitol, 50 micro-M ATP, pH 7.4) at room temperature for 1 hour. The reaction was stopped by the addition of three fold assay volume of progressive binding solution. […] IC50 values were calculated by nonlinear four parameter fit using SigmaPlot, version 10.0 (Systat Software, Inc.).
# [2] = Body weight of xenograft mice as indicator of tolerability
Compound,IC50 [1] [µM],"Mean relative body weight after 14 days of administration (vs day 0) ([2]; A549 mice, 1 mg/kg intravenously once a day)","Mean relative body weight after 14 days of administration (vs day 0) ([2]; A549 mice, 5 mg/kg intravenously once a day)","Mean relative body weight after 14 days of administration (vs day 0) ([2]; A549 mice, 5 mg/kg orally once a day)","Mean relative body weight after 14 days of administration (vs day 0) ([2]; A549 mice, 10 mg/kg intravenously once a day)","Mean relative body weight after 14 days of administration (vs day 0) ([2]; A549 mice, 10 mg/kg orally once a day)","Mean relative body weight after 14 days of administration (vs day 0) ([2]; DU145 mice, 10 mg/kg orally once a day)","Mean relative body weight after 14 days of administration (vs day 0) ([2]; MDA-MB-231 mice, 10 mg/kg orally once a day)","Mean relative body weight after 14 days of administration (vs day 0) ([2]; MDA-MB-231 mice, 20 mg/kg intravenously once every two days)","Mean relative body weight after 14 days of administration (vs day 0) ([2]; MIAPaCa-2 mice, 10 mg/kg orally once a day)"
"CC(=O)c1cnc2ccc(-c3cc(Cl)c(O)c(Cl)c3)nc2c1N[C@H]1CC[C@@H](CN(C)C)CC1 [Example 94, 1-{6-(3,5-Dichloro-4-hydroxyphenyl)-4-({cis-4-[(dimethylamino)methyl]-cyclohexyl}amino)-1,5-naphthyridin-3-yl}ethanone dihydrochloride]",0.0006,,,,,,,,,
"CC(=O)c1cnc2ccc(-c3cc(Cl)c(O)c(Cl)c3)nc2c1N[C@H]1CC[C@H](CN(C)C)CC1 [Example 6, 1-{6-(3,5-Dichloro-4-hydroxyphenyl)-4-({trans-4-[(dimethylamino)methyl]cyclohexyl}amino)-1,5-naphthyridin-3-yl}ethanone dihydrochloride]",0.0011,1.06,1.03,0.99,1.00,0.98,0.96,0.89,0.93,0.97
